Data taken from publication PMC12836348, “Alanine Mutagenesis Identifies Specific Amino Acids of Nemertide Alpha‑1 Activity and Its Binding to Target Receptors” (Journal of Natural Products, 2025).

The chains behind the UniProt entries cited, without tags or fusion partners.
UniProt P15390, whole entry: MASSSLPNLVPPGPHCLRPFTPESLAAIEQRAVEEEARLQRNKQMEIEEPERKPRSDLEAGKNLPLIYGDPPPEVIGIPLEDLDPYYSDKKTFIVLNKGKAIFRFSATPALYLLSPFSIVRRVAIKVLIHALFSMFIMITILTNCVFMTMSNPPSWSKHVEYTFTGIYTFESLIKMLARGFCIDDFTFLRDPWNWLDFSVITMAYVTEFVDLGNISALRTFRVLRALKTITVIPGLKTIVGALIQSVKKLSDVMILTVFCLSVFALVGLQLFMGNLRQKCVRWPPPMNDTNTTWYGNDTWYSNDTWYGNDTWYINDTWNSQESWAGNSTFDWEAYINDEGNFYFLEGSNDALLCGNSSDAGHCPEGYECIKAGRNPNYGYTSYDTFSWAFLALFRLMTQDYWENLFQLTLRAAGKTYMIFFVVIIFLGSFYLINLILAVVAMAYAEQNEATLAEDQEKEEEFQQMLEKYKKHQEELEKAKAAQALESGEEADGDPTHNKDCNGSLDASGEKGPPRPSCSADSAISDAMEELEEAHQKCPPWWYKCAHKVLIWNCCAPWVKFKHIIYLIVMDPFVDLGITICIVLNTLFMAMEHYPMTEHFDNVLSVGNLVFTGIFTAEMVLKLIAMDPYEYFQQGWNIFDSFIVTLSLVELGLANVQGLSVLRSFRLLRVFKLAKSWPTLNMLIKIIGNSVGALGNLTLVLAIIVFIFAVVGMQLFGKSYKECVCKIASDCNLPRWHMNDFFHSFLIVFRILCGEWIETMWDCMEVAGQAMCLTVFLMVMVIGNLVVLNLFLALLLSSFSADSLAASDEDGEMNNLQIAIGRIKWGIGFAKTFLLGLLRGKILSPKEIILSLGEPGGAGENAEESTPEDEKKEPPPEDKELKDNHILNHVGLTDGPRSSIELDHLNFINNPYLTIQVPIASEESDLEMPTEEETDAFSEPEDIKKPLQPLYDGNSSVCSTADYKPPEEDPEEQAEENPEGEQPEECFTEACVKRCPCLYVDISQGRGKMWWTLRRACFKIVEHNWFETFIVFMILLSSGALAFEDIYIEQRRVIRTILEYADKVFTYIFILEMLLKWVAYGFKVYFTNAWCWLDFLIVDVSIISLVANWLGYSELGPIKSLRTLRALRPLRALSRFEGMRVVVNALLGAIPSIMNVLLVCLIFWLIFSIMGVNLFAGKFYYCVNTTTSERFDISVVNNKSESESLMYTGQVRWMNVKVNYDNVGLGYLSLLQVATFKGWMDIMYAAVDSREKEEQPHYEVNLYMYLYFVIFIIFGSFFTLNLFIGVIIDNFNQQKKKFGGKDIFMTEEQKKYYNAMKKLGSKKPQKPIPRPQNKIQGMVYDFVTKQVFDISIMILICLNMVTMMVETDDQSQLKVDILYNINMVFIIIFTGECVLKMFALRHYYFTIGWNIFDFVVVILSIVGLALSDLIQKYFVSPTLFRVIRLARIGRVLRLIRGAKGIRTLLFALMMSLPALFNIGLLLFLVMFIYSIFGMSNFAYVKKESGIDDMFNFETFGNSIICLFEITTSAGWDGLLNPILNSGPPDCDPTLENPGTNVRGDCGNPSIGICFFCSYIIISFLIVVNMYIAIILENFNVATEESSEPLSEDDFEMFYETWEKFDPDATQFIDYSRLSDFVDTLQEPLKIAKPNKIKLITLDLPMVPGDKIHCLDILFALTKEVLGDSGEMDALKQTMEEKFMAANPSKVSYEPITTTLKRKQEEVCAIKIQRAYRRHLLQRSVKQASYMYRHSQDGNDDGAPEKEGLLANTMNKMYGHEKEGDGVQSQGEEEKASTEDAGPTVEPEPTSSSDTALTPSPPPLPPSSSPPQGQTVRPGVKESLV
UniProt Q9UQD0, whole entry: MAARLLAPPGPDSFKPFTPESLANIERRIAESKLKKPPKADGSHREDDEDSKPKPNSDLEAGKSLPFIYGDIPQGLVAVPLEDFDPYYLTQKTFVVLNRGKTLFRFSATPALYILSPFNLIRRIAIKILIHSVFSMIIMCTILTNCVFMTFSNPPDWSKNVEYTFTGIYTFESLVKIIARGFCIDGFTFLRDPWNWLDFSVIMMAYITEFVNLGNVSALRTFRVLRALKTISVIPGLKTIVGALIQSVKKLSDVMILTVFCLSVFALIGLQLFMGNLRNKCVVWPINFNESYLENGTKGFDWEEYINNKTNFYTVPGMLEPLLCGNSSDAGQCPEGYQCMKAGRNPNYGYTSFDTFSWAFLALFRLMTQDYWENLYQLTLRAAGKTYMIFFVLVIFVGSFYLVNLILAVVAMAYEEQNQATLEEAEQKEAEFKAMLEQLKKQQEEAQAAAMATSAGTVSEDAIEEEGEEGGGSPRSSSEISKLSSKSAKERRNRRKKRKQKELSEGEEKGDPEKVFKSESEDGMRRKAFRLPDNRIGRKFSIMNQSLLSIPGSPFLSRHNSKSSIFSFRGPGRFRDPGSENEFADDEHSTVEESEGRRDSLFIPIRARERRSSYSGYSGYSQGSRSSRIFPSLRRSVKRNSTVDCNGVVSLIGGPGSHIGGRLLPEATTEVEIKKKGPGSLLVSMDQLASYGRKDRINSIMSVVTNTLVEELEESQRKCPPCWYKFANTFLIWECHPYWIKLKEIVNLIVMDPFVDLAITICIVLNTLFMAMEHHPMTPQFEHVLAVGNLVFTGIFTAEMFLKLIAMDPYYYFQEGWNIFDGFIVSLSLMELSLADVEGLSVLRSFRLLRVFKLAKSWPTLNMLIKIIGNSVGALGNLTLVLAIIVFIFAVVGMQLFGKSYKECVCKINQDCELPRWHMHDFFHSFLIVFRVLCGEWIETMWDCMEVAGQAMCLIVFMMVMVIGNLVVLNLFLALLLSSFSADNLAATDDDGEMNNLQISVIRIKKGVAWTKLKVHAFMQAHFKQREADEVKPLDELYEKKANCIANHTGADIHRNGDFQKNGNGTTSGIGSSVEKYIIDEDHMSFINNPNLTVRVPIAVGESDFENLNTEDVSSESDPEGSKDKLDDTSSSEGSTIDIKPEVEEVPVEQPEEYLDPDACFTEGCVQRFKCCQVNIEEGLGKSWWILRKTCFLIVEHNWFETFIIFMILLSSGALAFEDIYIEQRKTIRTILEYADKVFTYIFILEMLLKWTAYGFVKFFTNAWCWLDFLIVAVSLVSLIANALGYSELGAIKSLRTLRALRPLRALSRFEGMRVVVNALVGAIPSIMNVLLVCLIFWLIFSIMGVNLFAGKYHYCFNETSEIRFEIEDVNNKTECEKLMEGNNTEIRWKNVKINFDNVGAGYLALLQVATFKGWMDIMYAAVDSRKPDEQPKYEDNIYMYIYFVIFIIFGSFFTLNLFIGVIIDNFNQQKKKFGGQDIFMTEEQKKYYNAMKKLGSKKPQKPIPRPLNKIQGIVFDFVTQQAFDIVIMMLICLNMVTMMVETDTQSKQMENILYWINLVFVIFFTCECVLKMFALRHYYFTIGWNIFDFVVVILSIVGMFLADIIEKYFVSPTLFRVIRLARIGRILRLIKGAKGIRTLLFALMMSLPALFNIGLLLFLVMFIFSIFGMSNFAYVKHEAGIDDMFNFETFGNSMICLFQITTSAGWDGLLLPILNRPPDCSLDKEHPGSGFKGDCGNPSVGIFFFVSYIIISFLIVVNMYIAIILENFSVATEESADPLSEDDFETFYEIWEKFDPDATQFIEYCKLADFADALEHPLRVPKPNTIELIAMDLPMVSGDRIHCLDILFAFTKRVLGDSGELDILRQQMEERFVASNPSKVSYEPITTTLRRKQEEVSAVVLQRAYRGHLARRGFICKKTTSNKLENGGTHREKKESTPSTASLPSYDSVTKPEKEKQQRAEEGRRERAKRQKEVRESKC
UniProt Q14524, whole entry: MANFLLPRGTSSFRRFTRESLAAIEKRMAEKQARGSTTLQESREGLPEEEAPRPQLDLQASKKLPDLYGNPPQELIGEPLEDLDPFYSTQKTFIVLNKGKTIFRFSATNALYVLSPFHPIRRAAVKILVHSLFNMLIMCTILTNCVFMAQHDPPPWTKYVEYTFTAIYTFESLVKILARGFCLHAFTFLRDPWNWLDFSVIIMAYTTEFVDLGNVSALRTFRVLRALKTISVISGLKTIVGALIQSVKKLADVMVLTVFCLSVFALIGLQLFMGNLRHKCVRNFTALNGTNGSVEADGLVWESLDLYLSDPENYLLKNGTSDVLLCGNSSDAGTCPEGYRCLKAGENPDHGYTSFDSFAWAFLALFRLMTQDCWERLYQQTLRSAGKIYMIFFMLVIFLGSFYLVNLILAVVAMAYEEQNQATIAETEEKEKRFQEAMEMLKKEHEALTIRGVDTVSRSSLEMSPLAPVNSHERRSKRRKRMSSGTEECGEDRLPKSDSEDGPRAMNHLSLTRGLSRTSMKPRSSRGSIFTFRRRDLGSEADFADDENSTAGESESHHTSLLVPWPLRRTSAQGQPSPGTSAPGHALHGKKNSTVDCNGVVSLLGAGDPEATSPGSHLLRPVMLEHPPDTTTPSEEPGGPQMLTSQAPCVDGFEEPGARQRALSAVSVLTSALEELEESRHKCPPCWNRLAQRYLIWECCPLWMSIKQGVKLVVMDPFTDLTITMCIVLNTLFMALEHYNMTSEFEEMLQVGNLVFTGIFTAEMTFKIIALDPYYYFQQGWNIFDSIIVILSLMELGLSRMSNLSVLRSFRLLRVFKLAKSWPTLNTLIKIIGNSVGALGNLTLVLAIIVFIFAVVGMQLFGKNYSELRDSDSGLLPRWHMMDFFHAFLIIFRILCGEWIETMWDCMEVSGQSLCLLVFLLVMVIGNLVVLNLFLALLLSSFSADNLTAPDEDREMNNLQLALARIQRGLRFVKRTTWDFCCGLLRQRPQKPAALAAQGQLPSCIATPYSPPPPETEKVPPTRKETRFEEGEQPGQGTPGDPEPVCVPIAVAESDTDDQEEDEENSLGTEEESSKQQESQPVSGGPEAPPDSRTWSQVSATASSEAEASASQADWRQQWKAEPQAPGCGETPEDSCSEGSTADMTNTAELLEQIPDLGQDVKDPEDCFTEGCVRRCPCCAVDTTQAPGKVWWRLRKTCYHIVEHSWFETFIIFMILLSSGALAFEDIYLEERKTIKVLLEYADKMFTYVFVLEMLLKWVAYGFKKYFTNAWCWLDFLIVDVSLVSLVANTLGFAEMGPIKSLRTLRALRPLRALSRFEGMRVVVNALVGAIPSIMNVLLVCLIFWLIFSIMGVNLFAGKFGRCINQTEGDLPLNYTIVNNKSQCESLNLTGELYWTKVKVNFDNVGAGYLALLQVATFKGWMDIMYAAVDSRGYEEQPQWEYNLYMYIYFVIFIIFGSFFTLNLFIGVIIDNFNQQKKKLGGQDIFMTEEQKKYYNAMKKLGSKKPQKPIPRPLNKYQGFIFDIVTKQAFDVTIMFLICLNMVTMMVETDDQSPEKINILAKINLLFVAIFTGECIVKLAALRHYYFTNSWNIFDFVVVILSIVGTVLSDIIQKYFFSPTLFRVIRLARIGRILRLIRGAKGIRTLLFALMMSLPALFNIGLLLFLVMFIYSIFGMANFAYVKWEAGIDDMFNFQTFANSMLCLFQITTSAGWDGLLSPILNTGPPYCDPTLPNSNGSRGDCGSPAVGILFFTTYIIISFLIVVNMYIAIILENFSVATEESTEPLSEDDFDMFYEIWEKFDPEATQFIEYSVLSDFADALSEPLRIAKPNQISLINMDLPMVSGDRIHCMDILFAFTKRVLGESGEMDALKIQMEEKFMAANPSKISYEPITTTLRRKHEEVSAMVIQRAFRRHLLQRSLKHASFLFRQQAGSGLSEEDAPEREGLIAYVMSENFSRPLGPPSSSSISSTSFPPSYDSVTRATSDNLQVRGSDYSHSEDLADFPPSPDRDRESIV

Key:
BgNav1 = assay: Two-electrode voltage clamp, BgNav1 expressed in Xenopus laevis oocytes; type: cell-based, Blattella germanica; details: ex vivo, I30ms/Ipeak, Hill fit, n ≥ 3, highest tested concentration 50 μM
rNaV1.4 = molecular target: T1, rNaV1.4 (Rattus norvegicus, UniProt P15390); assay: Two-electrode voltage clamp, Nav1.4 in Xenopus laevis oocytes; type: cell-based; details: ex vivo, Hill fit, n ≥ 3, highest tested concentration 50 μM
T1 construct: expressed in transfected cells; host or cells: Xenopus laevis oocytes (cRNA injection)

hNaV1.6 = molecular target: T2, hNaV1.6 (Homo sapiens, UniProt Q9UQD0); assay: Two-electrode voltage clamp, Nav1.6 in Xenopus laevis oocytes; type: cell-based; details: two-electrode voltage clamp in Xenopus laevis oocytes, Hill fit, n ≥ 3; highest tested concentration 50 μM
T2 construct: expressed in transfected cells; host or cells: Xenopus laevis oocytes (cRNA injection)
Method: (§1) For the expression of NaV channels (hNav1.1, rNaV1.2, rNaV1.3, rNaV1.4, hNaV1.5, hNaV1.6, hNav1.7, and the insect channel BgNaV1) in Xenopus laevis oocytes, the linearized plasmids were transcribed using the T7 or SP6 mMESSAGE-mMACHINE transcription kit (Ambion, Carlsbad, CA, USA). The harvesting of stage V and VI oocytes from an anaesthetized female X. laevis frog was described previously. , Oocytes were injected with 50 nL of cRNA at a concentration of 1 ng/nL using a microinjector (Drummond Scientific, Broomall, PA, USA). The oocytes were incubated in a solution containing 96 mM NaCl, 2 mM KCl, 1.8 mM CaCl2, 2 mM MgCl2, and 5 mM HEPES (pH 7.4), supplemented with 50 mg/L gentamycin sulfate. Two-electrode voltage-clamp recordings were performed at room temperature (18–22 °C) using a Geneclamp 500 amplifier (Molecular Devices, Downingtown, PA, USA) controlled by a pClamp data acquisition system (Axon Instruments, Union City, CA, USA). Whole-cell currents from oocytes were recorded 1–4 days after injection. The bath solution composition was 96 mM NaCl, 2 mM KCl, 1.8 mM CaCl2, 2 mM MgCl2, and 5 mM HEPES (pH 7.4). Voltage and current electrodes were filled with 3 M KCl. The resistances of both electrodes were kept between 0.8 and 1.5 MΩ. The elicited Nav channel currents were filtered at 1 kHz and sampled at 20 kHz by using a four-pole low-pass Bessel filter. Leak subtraction was performed using a −P/4 protocol. For the electrophysiological analysis of toxins, a series of protocols was applied from a holding potential of −90 mV with a start-to-start interval of 0.2 Hz. Sodium current traces were evoked by 100 ms depolarizations to V max (the voltage corresponding to maximum sodium current in control conditions).
(§2) To assess the concentration–response relationships, data were fitted with the Hill equation: y = 100/[1 + (EC50/[toxin])^ h ], where y is the amplitude of the toxin-induced effect (y = I 30 ms/I peak where I 30 ms is the current value at 30 ms in the presence of toxin and I peak is the peak current amplitude in control conditions), EC50 is the toxin concentration at half-maximal efficacy, [toxin] is the toxin concentration, and h is the Hill coefficient. Potassium and calcium currents were evoked by a 500 ms depolarization to the voltage corresponding to the maximal activation of the channels in control conditions from a holding potential of −90 mV. Elicited currents were sampled at 1 kHz and filtered at 0.5 kHz. For nAChR experiments, the oocytes were clamped at a holding potential of −70 mV and continuously superfused with ND96 via gravity-fed tubes at 0.1–0.2 mL min^–1, with 5 min incubation times for the bath-applied peptides. ACh was applied via gravity-fed tubes until a peak current amplitude was obtained (1–3 s), with 1–2 min washout periods between applications. The nAChR were gated by a particular time duration pulse of ACh for the respective nAChR subtype at 2 mL min^–1. Data were sampled at 500 Hz and filtered at 200 Hz. ASIC1a currents were measured in ND96 solutions at a pH of 7.4 and 4.5, at a holding potential of −70 mV during 400 s, and the data were filtered at 20 Hz. EnaC currents were measured by clamping oocytes at a holding potential of −60 mV and perfusing with low- (1 mM) and high- (96 mM) sodium ND96. Opioid currents were measured by clamping the potential to −70 mV and changing the perfusion solution from ND96 to high-potassium (HK) solution composed of 96 mM KCl, 2 mM NaCl, 1 mM MgCl2, 1.8 mM CaCl2, and 5 mM HEPES, with a final pH of 7.5. The HK-evoked increase in inward K^+ currents represents a “basal” K^+ current (IK, basal). In the presence of HK, 0.2 μM morphine was applied to oocytes and then washed out by HK. TRPV1 and TRPA1 currents were continuously monitored in a perfusing ND96 solution, following a protocol at −90 mV for 400 s. The sampling rate was set at 100 Hz, and the signals were filtered at 20 Hz. One μM capsaicin and 10 μM capsazepine were used for TRPV1. […]

hNaV1.5 = molecular target: T3, hNaV1.5 (Homo sapiens, UniProt Q14524); assay: Two-electrode voltage clamp, Nav1.5 in Xenopus laevis oocytes; type: cell-based; details: for EC50 Nav1.5: ex vivo, two-electrode voltage clamp in Xenopus laevis oocytes, Hill fit, n ≥ 3, highest tested concentration 50 μM
T3 construct: expressed in transfected cells; host or cells: Xenopus laevis oocytes (cRNA injection)
Method: as §1, §2

SMILES	EC50 (BgNav1) [nM]	EC50 Nav1.4 (rNaV1.4)	EC50 Nav1.6 (hNaV1.6)	EC50 Nav1.5 (hNaV1.5)	fold higher activity on Nav1.5 than alpha-1 (hNaV1.5) [fold]
CC[C@H](C)[C@@H]1NC(=O)[C@@H](NC(=O)CN)CSSC[C@@H]2NC(=O)[C@@H]3CSSC[C@@H](C(=O)N[C@@H](CC(N)=O)C(=O)N4C[C@H](O)C[C@H]4C(=O)N4C[C@H](O)C[C@H]4C(=O)N[C@@H](CC(N)=O)C(=O)N[C@@H](CCC(N)=O)C(=O)O)NC(=O)[C@H](CCCCN)NC(=O)[C@H](C)NC(=O)[C@H](CC(N)=O)NC(=O)[C@H](Cc4c[nH]c5ccccc45)NC(=O)CNC(=O)[C@H](CSSC[C@H](NC(=O)[C@H](Cc4ccccc4)NC(=O)[C@H](CO)NC(=O)CNC(=O)[C@H]([C@@H](C)O)NC(=O)[C@H](C)NC1=O)C(=O)N[C@@H]([C@@H](C)O)C(=O)N[C@@H](CC(C)C)C(=O)N[C@@H](CO)C(=O)N[C@@H](CCCCN)C(=O)NCC(=O)N3)NC(=O)[C@H](CC(N)=O)NC(=O)[C@H](CCCCN)NC(=O)[C@H]([C@@H](C)O)NC2=O [Peptide F24A]	1050 ± 196	no detectable activity	inactive at the tested concentration		
CC[C@H](C)[C@@H]1NC(=O)[C@@H](NC(=O)CN)CSSC[C@@H]2NC(=O)[C@@H]3CSSC[C@@H](C(=O)N[C@@H](CC(N)=O)C(=O)N4C[C@H](O)C[C@H]4C(=O)N4C[C@H](O)C[C@H]4C(=O)N[C@@H](CC(N)=O)C(=O)N[C@@H](CCC(N)=O)C(=O)O)NC(=O)[C@H](CCCCN)NC(=O)[C@H](Cc4ccccc4)NC(=O)[C@H](CC(N)=O)NC(=O)[C@H](Cc4c[nH]c5ccccc45)NC(=O)CNC(=O)[C@H](CSSC[C@H](NC(=O)[C@H](Cc4ccccc4)NC(=O)[C@H](CO)NC(=O)CNC(=O)[C@H]([C@@H](C)O)NC(=O)[C@H](C)NC1=O)C(=O)N[C@@H]([C@@H](C)O)C(=O)N[C@@H](C)C(=O)N[C@@H](CO)C(=O)N[C@@H](CCCCN)C(=O)NCC(=O)N3)NC(=O)[C@H](CC(N)=O)NC(=O)[C@H](CCCCN)NC(=O)[C@H]([C@@H](C)O)NC2=O [Peptide L11A]	298 ± 35.2			in the same range as alpha-1	
CC[C@H](C)[C@@H]1NC(=O)[C@@H](NC(=O)CN)CSSC[C@@H]2NC(=O)[C@@H]3CSSC[C@@H](C(=O)N[C@@H](CC(N)=O)C(=O)N4C[C@H](O)C[C@H]4C(=O)N4C[C@H](O)C[C@H]4C(=O)N[C@@H](CC(N)=O)C(=O)N[C@@H](CCC(N)=O)C(=O)O)NC(=O)[C@H](CCCCN)NC(=O)[C@H](Cc4ccccc4)NC(=O)[C@H](CC(N)=O)NC(=O)[C@H](Cc4c[nH]c5ccccc45)NC(=O)CNC(=O)[C@H](CSSC[C@H](NC(=O)[C@H](Cc4ccccc4)NC(=O)[C@H](C)NC(=O)CNC(=O)[C@H]([C@@H](C)O)NC(=O)[C@H](C)NC1=O)C(=O)N[C@@H]([C@@H](C)O)C(=O)N[C@@H](CC(C)C)C(=O)N[C@@H](CO)C(=O)N[C@@H](CCCCN)C(=O)NCC(=O)N3)NC(=O)[C@H](CC(N)=O)NC(=O)[C@H](CCCCN)NC(=O)[C@H]([C@@H](C)O)NC2=O [Peptide S7A]	35.9 ± 13.3		slightly higher activity	in the same range as alpha-1	
CC[C@H](C)[C@@H]1NC(=O)[C@@H](NC(=O)CN)CSSC[C@@H]2NC(=O)[C@@H]3CSSC[C@@H](C(=O)N[C@@H](CC(N)=O)C(=O)N4C[C@H](O)C[C@H]4C(=O)N4C[C@H](O)C[C@H]4C(=O)N[C@@H](CC(N)=O)C(=O)N[C@@H](CCC(N)=O)C(=O)O)NC(=O)[C@H](CCCCN)NC(=O)[C@H](Cc4ccccc4)NC(=O)[C@H](CC(N)=O)NC(=O)[C@H](Cc4c[nH]c5ccccc45)NC(=O)CNC(=O)[C@H](CSSC[C@H](NC(=O)[C@H](Cc4ccccc4)NC(=O)[C@H](CO)NC(=O)CNC(=O)[C@H]([C@@H](C)O)NC(=O)[C@H](C)NC1=O)C(=O)N[C@@H](C)C(=O)N[C@@H](CC(C)C)C(=O)N[C@@H](CO)C(=O)N[C@@H](CCCCN)C(=O)NCC(=O)N3)NC(=O)[C@H](CC(N)=O)NC(=O)[C@H](CCCCN)NC(=O)[C@H]([C@@H](C)O)NC2=O [Peptide T10A]	155 ± 132		slightly higher activity		1.2
